Laboratory results taken from PMC10631289 (Bioorganic & medicinal chemistry letters, 2023).

Amino acid sequences for entries named in this document (tags omitted).
UniProt P46095, whole entry R220Y: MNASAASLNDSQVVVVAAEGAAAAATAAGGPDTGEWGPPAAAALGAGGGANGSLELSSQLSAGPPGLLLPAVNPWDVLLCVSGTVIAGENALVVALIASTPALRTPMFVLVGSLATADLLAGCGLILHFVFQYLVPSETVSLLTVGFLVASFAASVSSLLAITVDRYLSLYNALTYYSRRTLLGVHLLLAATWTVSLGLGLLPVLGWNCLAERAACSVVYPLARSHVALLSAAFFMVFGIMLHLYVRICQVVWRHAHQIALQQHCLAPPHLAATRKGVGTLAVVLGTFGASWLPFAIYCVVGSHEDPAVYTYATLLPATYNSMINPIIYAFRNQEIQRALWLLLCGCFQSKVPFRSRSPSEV
UniProt P46089, whole entry Y188R: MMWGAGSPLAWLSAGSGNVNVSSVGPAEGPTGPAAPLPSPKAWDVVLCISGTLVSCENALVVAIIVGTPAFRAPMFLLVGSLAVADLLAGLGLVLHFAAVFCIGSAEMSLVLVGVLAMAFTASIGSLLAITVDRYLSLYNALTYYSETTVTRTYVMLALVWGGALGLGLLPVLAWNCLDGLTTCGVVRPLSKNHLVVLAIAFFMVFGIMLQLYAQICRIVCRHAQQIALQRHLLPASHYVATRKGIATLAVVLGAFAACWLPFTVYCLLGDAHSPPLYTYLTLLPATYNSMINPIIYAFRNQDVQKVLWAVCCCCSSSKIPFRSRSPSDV

Legend:
GPR6 R220Y mutant = GPR6 R220Y mutant (Homo sapiens, UniProt P46095, R220Y); assay: cAMP accumulation, GPR6 R220Y mutant receptor; format: cell-based
GPR3 Y188R mutant = GPR3 Y188R mutant (Homo sapiens, UniProt P46089, Y188R); conditions: compared to wildtype GPR3
hGPR6 = hGPR6 (Homo sapiens, UniProt P46095); conditions: HEK GPR6 cell line; listed as DPI
hGPR12 = target: T1, hGPR12 (Homo sapiens, UniProt P47775); conditions: HEK GPR12 cell line; listed as DPI
T1 sequence (P47775 1-334): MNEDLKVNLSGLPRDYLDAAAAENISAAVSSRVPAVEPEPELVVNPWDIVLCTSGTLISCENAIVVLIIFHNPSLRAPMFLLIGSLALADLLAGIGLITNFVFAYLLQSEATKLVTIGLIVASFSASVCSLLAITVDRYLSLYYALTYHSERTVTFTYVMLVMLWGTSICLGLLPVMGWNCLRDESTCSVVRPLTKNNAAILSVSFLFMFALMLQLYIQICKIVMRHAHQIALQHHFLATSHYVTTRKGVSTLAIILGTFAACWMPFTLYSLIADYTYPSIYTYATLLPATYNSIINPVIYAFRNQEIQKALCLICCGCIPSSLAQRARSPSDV

SMILES: [Cl-].c1ccc2c(c1)[I+]c1ccccc1-2 [Compound 1, diphenyleneiodonium (DPI) chloride]
- activity in GPR6 R220Y mutant (GPR6 R220Y mutant): did not confer activity
- activity in GPR6 R220Y mutant (GPR6 R220Y mutant; listed as DPI): no activity
- cAMP accumulation in GPR3 Y188R mutant (GPR3 Y188R mutant): able to increase cAMP accumulation in the GPR3 Y188R mutant similar to the wildtype receptor
- cAMP accumulation in GPR3 Y188R mutant (GPR3 Y188R mutant; listed as DPI): retained activity
- increase of cAMP response over basal levels (hGPR6): but not GPR6, GPR12, or in HEK293 cells alone
- increase of cAMP response over basal levels (hGPR12): but not GPR6, GPR12, or in HEK293 cells alone

Like-named read-outs stand apart in the source and are kept apart here.
